Experimental data: US11725096B2, “Zinc oxide complexes” (MARY KAY INC., priority 2010, dated 2023)

Test: Solubility / dissociation of the complexes in water

Which dissociation in water does the source give for zinc oxide/salicylic acid complexes here?
The dissociation in water was “do not dissociate easily in water”.
